According to patent US20260382616A1, “TREATMENT METHODS FOR SUBJECTS WITH NON-SMALL CELL LUNG CANCER HAVING AN ABERRATION IN EGFR” (published 2026):

Assay: Phase 1/2a study, safety
[1] = 150 mg BID (N=11), regardless of grade

C=CC(=O)N[C@H]1C=C(C)c2c(-c3cnc4ccccc4c3)c3c(N)ncnc3n2C1
DLTs (100 mg dose level): 1/39
Pneumonitis, grade (100 mg patient, confounded by CPI and concurrent hydropneumothorax contralateral lung): grade 3
Pneumonitis, grade (100 mg patient, treated with steroids, resolution, continued therapy): grade 1 (to be upgraded as grade 2)
Treatment-related discontinuations (150 mg): two
Dose reductions (150 mg BID): 3/11
Grade 3 or 4 ALT/AST increase (150 mg BID): one
Pneumonitis possibly related (150 mg BID): one
TEAE ≥Grade 3 ALT increased (150 mg BID (N=11)): 1 (9.1) No (%)
TEAE ≥Grade 3 AST increased (150 mg BID (N=11)): 1 (9.1) No (%)
TEAE ≥Grade 3 anemia (150 mg BID (N=11)): 2 (18.2) No (%)
TEAE ≥Grade 3 diarrhea (150 mg BID (N=11)): 2 (18.2) No (%)
TEAE ≥Grade 3 disease progression (150 mg BID (N=11)): 0 No (%)
TEAE ≥Grade 3 dyspnea (150 mg BID (N=11)): 0 No (%)
TEAE ≥Grade 3 pneumonia (150 mg BID (N=11)): 0 No (%)
TRAE AST increased, number (150 mg BID (N=11), all grade): 2
TRAE AST increased, percent (150 mg BID (N=11), all grade): (18) %
TRAE alopecia, number (150 mg BID (N=11), all grade): 0
TRAE anemia, number (150 mg BID (N=11), all grade): 2
TRAE anemia, percent (150 mg BID (N=11), all grade): (18) %
TRAE decreased appetite, number (150 mg BID (N=11), all grade): 0
TRAE diarrhea, number (150 mg BID (N=11), all grade): 4
TRAE diarrhea, percent (150 mg BID (N=11), all grade): (36) %
TRAE dry eye, number (150 mg BID (N=11), all grade): 1
TRAE dry eye, percent (150 mg BID (N=11), all grade): (9) %
TRAE dry skin, number (150 mg BID (N=11), all grade): 0
TRAE fatigue, number (150 mg BID (N=11), all grade): 2
TRAE fatigue, percent (150 mg BID (N=11), all grade): (18) %
TRAE nausea, number (150 mg BID (N=11), all grade): 3
TRAE nausea, percent (150 mg BID (N=11), all grade): (27) %
TRAE paronychia, number (150 mg BID (N=11), all grade): 5
TRAE paronychia, percent (150 mg BID (N=11), all grade): (45) %
TRAE rash, number (150 mg BID (N=11), all grade): 7
TRAE rash, percent (150 mg BID (N=11), all grade): (64) %
TRAE stomatitis, number (150 mg BID (N=11), all grade): 3
TRAE stomatitis, percent (150 mg BID (N=11), all grade): (27) %
TRAE AST increased, number (150 mg BID (N=11), grade ≥3): 1
TRAE AST increased, percent (150 mg BID (N=11), grade ≥3): (9.1) %
TRAE alopecia, number (150 mg BID (N=11), grade ≥3): 0
TRAE anemia, number (150 mg BID (N=11), grade ≥3): 2
TRAE anemia, percent (150 mg BID (N=11), grade ≥3): (18.2) %
TRAE decreased appetite, number (150 mg BID (N=11), grade ≥3): 0
TRAE diarrhea, number (150 mg BID (N=11), grade ≥3): 2
TRAE diarrhea, percent (150 mg BID (N=11), grade ≥3): (18) %
TRAE dry eye, number (150 mg BID (N=11), grade ≥3): 0
TRAE dry skin, number (150 mg BID (N=11), grade ≥3): 0
TRAE fatigue, number (150 mg BID (N=11), grade ≥3): 0
TRAE nausea, number (150 mg BID (N=11), grade ≥3): 0
TRAE paronychia, number (150 mg BID (N=11), grade ≥3): 0
TRAE rash, number (150 mg BID (N=11), grade ≥3): 1
TRAE rash, percent (150 mg BID (N=11), grade ≥3): (9) %
TRAE stomatitis, number (150 mg BID (N=11), grade ≥3): 1
TRAE stomatitis, percent (150 mg BID (N=11), grade ≥3): (9) %
TEAE ALT increased, number (percent) [1]: 2 (18.2)
TEAE AST increased, number (percent) [1]: 2 (18.2)
TEAE alopecia, number (percent) [1]: 0
TEAE anemia, number (percent) [1]: 3 (27.3)
TEAE arthralgia, number (percent) [1]: 3 (27.3)
TEAE constipation, number (percent) [1]: 0
TEAE cough, number (percent) [1]: 2 (18.2)
TEAE decreased appetite, number (percent) [1]: 1 (9.1)
TEAE diarrhea, number (percent) [1]: 4 (36.4)
TEAE dizziness, number (percent) [1]: 2 (18.2)
TEAE dry eye, number (percent) [1]: 1 (9.1)
TEAE dry skin, number (percent) [1]: 1 (9.1)
TEAE dyspnea, number (percent) [1]: 1 (9.1)
TEAE edema peripheral, number (percent) [1]: 2 (18.2)
TEAE fatigue, number (percent) [1]: 3 (27.3)
TEAE headache, number (percent) [1]: 0
TEAE insomnia, number (percent) [1]: 1 (9.1)
TEAE nausea, number (percent) [1]: 4 (36.4)
TEAE paronychia, number (percent) [1]: 6 (54.5)
TEAE pyrexia, number (percent) [1]: 1 (9.1)
TEAE rash, number (percent) [1]: 8 (72.7)
TEAE stomatitis, number (percent) [1]: 3 (27.3)
TEAE vomiting, number (percent) [1]: 1 (9.1)
Dose reductions (150 mg BID, first 11 patients): three
Drug discontinuations (150 mg BID, first 11 patients): three
DLTs (150 mg dose level): 4/11
Grade 3 rash (150 mg dose level): one
Pneumonitis, grade (150 mg patient, concurrent Pneumocystis infection): grade 3
Grade 3 or 4 ALT/AST increase (<65 mg BID): one
